Yeast mating assay B: variants of the scFv Ab-14

Antigen: PDVDLGDISGINAS, a 14-residue peptide of the SARS-CoV-2 spike HR2 region.

Parent scFv Ab-14: VH joined to VL by three GGGGS repeats. Changes lie in the heavy chain CDRs alone.
VH: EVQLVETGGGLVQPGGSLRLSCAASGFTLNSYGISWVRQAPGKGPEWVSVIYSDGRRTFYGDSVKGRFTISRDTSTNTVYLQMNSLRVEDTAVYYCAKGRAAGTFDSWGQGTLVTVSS
VL: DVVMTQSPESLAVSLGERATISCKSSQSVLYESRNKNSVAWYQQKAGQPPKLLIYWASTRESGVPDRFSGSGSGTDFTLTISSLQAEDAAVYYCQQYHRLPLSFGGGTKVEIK

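Phage display of a naive human antibody library on the peptide gave the parent. The variants were designed computationally from a first round of random CDR variants and then made and measured. Their group label is 14H_GP_Gen (GP: Gaussian process model; Gen: genetic algorithm; a sequence that several methods proposed may carry one label only). AlphaSeq pools MATa yeast showing the antibodies with MATalpha yeast showing the peptide. After mating in shaken culture at 30 °C for 16 h, diploids were selected and their barcode pairs sequenced. Scores were corrected for input abundance and mapped to Kd with protein pairs of known affinity run in the same pool. There are six technical replicates.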

Variants are written as CDR1, CDR2 and CDR3 of the heavy chain (limits as in the source). Parent: GFTLNSYGIS, VIYSDGRRTFYGDSVK, GRAAGTFDS.
Values are log10 of the apparent Kd in nM; lower means stronger binding.
An entry "n.d." has no value in the source: the pair was not observed among the diploids in that replicate. This suggests poor binding but is not conclusive.

CDR-H1 | CDR-H2 | CDR-H3 | replicates, log10 nM | signal with controls
GFSLNSYGIS | VIYSDGRRTFYSDSVK | GKAAGTFDQ | n.d. 0.26 0.17 n.d. 0.86 0.82 | 0/18
GFDLNSYGIS | VIYSDGRRTFYIDRVK | GNAAGTFDS | 0.72 0.72 0.90 1.16 0.79 1.14 | 2/18 (1.80)
GFELNSYGIS | VIYSDGRRTFYADSVK | GRAAGTFDT | n.d. n.d. n.d. n.d. n.d. n.d. | 0/18
GFGLNSYGIS | VIYSDGRRTAYGDSVK | GRQAGTFDS | 0.51 0.46 0.87 0.98 1.50 0.96 | 0/18
GFDLNSYGIS | VIYSDGRRTFYGDSVK | GKEAGTFDD | 0.87 -0.12 0.20 -0.02 -0.21 0.33 | 0/18
MFTLNEYGIS | VIYSDGRRTFYGDSVK | GRTAGTFDT | n.d. n.d. n.d. n.d. n.d. 2.21 | 0/18
GFELNDYGIS | VIYSDGRRTFYQDSVK | GRTAGTFDS | 0.23 0.19 0.14 -0.07 0.24 0.02 | 2/18 (2.59)
GFTLNSYGIS | VIYSDGKRTFYSDSVK | GKAAGTFDT | 1.00 0.04 0.53 0.92 0.25 0.58 | 1/18 (2.25)
GFDLNSYGIS | VIYSDGRRTFYIDSVK | GAAAGTFDS | 0.95 0.89 0.65 0.53 0.58 0.65 | 1/18 (2.13)
GFDLNSYGIS | VIYSDGRRTAYGDSVK | GRVAGTFDS | 0.15 -0.01 -0.12 -0.06 -0.17 -0.03 | 0/18
GFDLNSYGIS | VIYSDGKRTFYVDSVK | GRTAGTFDS | -0.11 -0.17 -0.37 0.15 0.11 -0.41 | 0/18
GFPLNEYGIS | VIYSDGRRTFYGDSVK | GREAGTFDT | 0.65 0.13 0.13 -0.49 -0.42 -0.37 | 0/18
GFDLNSYGIS | VIYSDGRRTFYGDSVK | GQAAGTFDQ | 0.60 0.25 0.36 0.66 0.19 0.52 | 0/18
GFWLNDYGIS | VIYSDGRRTFYGDSVK | GREAGTFDT | 0.34 0.73 0.71 0.25 0.33 0.65 | 0/18
GFSLNSYGIS | VIYSDGRRTFYGDQVK | GITAGTFDS | n.d. n.d. n.d. n.d. n.d. n.d. | 1/18 (1.22)
GFDLNSYGIS | VIYSDGRRTFYGDSVK | GQAAGTFDV | 0.43 0.56 0.19 0.22 -0.10 0.60 | 0/18
GFALNSYGIS | VIYSDGRRTFYQDSVK | GNAAGTFDS | n.d. -0.28 n.d. 0.42 0.85 0.83 | 0/18
GFTLESYGIS | VIYSDGRRTFYGDSVK | GKEAGTFDS | 2.18 1.26 1.42 n.d. 1.50 1.32 | 0/18
GFELNSYGIS | VIYSDGRRTFYADMVK | GRTAGTFDS | 0.15 0.88 1.44 0.03 0.84 0.79 | 0/18
GFQLNEYGIS | VIYSDGRRTFYGDQVK | GRTAGTFDK | 1.13 0.75 0.07 0.40 0.41 0.54 | 0/18
GFDLNEYGIS | VIYSDGRRTFYGDSVK | GRTAGTFDT | -0.23 -0.35 -0.40 -0.58 -0.64 -0.37 | 2/18 (2.84)
GFELNSYGIS | VIYSDGRRTFYGDSVK | GVTAGTFDT | 0.17 -0.60 -0.12 -0.59 -0.01 -0.35 | 0/18
GFHLNSYGIS | VIYSDGRRTFYGDSVK | GKEAGTFDS | n.d. 0.58 0.47 1.10 0.43 1.63 | 0/18
KFNLNSYGIS | VIYSDGRRTFYVDSVK | GRTAGTFDS | n.d. n.d. n.d. n.d. n.d. n.d. | 0/18
GFSLNSYGIS | VIYSDGRRTFYGDNVK | GQAAGTFDK | 0.02 2.65 -0.38 0.69 0.50 0.88 | 0/18
KFSLNNYGIS | VIYSDGRRTFYGDSVK | GQAAGTFDS | n.d. n.d. 1.83 n.d. 2.51 n.d. | 1/18 (1.59)
GFELNSYGIS | VIYSDGRRTFYADNVK | GRTAGTFDS | n.d. 1.04 n.d. n.d. n.d. n.d. | 0/18
GFDLNSYGIS | VIYSDGRRTFYGDSVK | GRQAGTFDT | -0.58 -0.44 -0.13 -0.46 0.16 0.12 | 0/18
GFDLNQYGIS | VIYSDGRRTFYGDSVK | GRTAGTFDS | 0.48 -0.17 0.47 -0.34 -0.35 0.54 | 0/18
HFSLNEYGIS | VIYSDGRRTFYGDSVK | GRTAGTFDS | 0.39 0.54 0.30 0.14 0.64 0.93 | 0/18
GFSLNSYGIS | VIYSDGRRTFYGDSVK | GREAGTFDA | 1.41 0.21 0.59 0.36 0.54 0.59 | 0/18
GFSLNSYGIS | VIYSDGKRTFYGDSVK | GSAAGTFDS | 0.31 0.21 0.00 0.03 0.43 0.54 | 1/18 (3.77)
GFTLNSYGIS | VIYSDGKRTFYIDSVK | GQAAGTFDL | 1.56 1.54 1.65 2.21 1.93 1.72 | 0/18
KFSLNSYGIS | VIYADGRRTFYGDSVK | GNAAGTFDS | 0.50 0.58 0.40 0.30 0.50 0.69 | 0/18
KFSLNSYGIS | VIYSDGRRTFYADSVK | GRMAGTFDS | 3.18 1.29 0.88 1.30 2.72 1.51 | 0/18
GFNLNSYGIS | VIYSDGRRTMYGDSVK | GRTAGTFDS | n.d. n.d. n.d. n.d. n.d. 0.53 | 0/18
GFELNSYGIS | VIYADGRRTFYGDSVK | GREAGTFDS | -0.19 -0.20 -0.64 -0.31 -0.28 0.10 | 0/18
GFELNEYGIS | VIYSDGRRTFYGDRVK | GRTAGTFDS | 0.77 0.11 -0.09 0.57 -0.09 0.15 | 0/18
GFELNSYGIS | VIYADGRRTFYGDDVK | GKAAGTFDS | -0.02 -0.11 -0.12 -0.29 -0.22 -0.08 | 1/18 (2.24)
GFSLNEYGIS | VIYSDGRRTFYGDSVK | GTAAGTFDT | 0.31 -0.10 0.18 -0.24 0.02 0.12 | 1/18 (1.76)
GFELNSYGIS | VIYSDGRRTFYGDPVK | GRTAGTFDS | 1.62 4.14 n.d. 1.76 0.75 n.d. | 0/18
GFDLNSYGIS | VIYSDGKRTFYVDSVK | GRQAGTFDS | 1.64 0.71 0.36 0.31 0.67 0.88 | 0/18
MFSLNSYGIS | VIYADGRRTFYGDSVK | GRAAGTFDS | 1.41 1.07 2.08 0.65 1.01 1.20 | 0/18
GFELNSYGIS | VIYSDGRRTFYGDSVK | GHAAGTFDK | 1.48 0.26 n.d. 1.04 n.d. n.d. | 0/18
GFDLNSYGIS | VIYSDGRRTFYHDSVK | GRIAGTFDS | -0.02 -0.01 -0.01 0.04 0.06 0.43 | 1/18 (2.84)
GFDLNSYGIS | VIYSDGRRTFYVDDVK | GKAAGTFDS | 0.22 0.25 0.58 0.38 0.42 -0.13 | 0/18
GFVLNEYGIS | VIYSDGRRTFYGDSVK | GRTAGTFDT | 0.43 0.76 0.55 0.55 0.40 0.50 | 0/18
GFELNMYGIS | VIYSDGRRTFYHDSVK | GRTAGTFDS | 0.66 0.54 0.21 0.36 0.07 0.53 | 0/18

The first 3 variants above that were never detected:

| CDR-H1 | CDR-H2 | CDR-H3 | replicates, log10 nM | signal with controls |
|---|---|---|---|---|
| GFELNSYGIS | VIYSDGRRTFYADSVK | GRAAGTFDT | n.d. n.d. n.d. n.d. n.d. n.d. | 0/18 |
| GFSLNSYGIS | VIYSDGRRTFYGDQVK | GITAGTFDS | n.d. n.d. n.d. n.d. n.d. n.d. | 1/18 (1.22) |
| KFNLNSYGIS | VIYSDGRRTFYVDSVK | GRTAGTFDS | n.d. n.d. n.d. n.d. n.d. n.d. | 0/18 |

Three control strains display no target. For all heavy chain designs, 1% of the pairings with them gave a signal, with a median of 2.08 and one signal in twenty below 0.84, so weak values seen in few replicates may be background. For each scFv, signals with the empty controls are counted beside the result, with their mean in brackets.
Values of this round are not directly comparable with the first-round values of the same sequences.
The authors averaged sequences with at least three values out of six and counted those with two or fewer as poor binders.

Values reported by Li et al. 2023, doi:10.1038/s41467-023-39022-2 (FLAb copy).